# Results as given in paper PMC9653265 (Journal of medicinal chemistry, 2022).
# Target: T1, hP2X4R (Homo sapiens, UniProt Q99571)
# T1 sequence (Q99571 1-388): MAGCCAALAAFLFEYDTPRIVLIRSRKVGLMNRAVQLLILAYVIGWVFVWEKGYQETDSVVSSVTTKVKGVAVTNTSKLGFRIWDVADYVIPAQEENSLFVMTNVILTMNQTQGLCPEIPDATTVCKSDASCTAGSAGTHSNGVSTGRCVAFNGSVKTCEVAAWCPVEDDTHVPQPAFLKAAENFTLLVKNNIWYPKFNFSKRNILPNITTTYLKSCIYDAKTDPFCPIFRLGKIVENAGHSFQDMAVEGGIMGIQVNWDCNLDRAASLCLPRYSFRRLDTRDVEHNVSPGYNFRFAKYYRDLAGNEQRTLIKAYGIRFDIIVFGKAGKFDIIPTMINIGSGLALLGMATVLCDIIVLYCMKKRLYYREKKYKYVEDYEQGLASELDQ
# Assay: hP2X4R channel assay
# Format: cell-based
structure (smiles),measurement,value
"CCN(CC)CC.O=C1CC(=O)N(c2ccnc(-c3noc(=S)[nH]3)c2)c2ccc3ccccc3c2N1 [Compound 21u, 5-(2-(5-Thioxo-4,5-dihydro-1,2,4-oxadiazol-3-yl)pyridin-4-yl)-1,5-dihydro-2H-naphtho[1,2-b][1,4]diazepine-2,4(3H)-dione]",fold higher activity (potency) at P2X4R than 5,3 fold
Cc1ccc2c3c(ccc2c1)N(c1cccc(-c2noc(=S)[n-]2)c1)C(=O)CC(=O)N3.[Na+] [Compound 22c],fold higher hP2X4R IC50 value than 21u,3 fold
"Nc1ncnc2c1ncn2[C@@H]1O[C@H](COP(=O)(O)OP(=O)(O)OP(=O)(O)O)[C@H]2OC3(O[C@H]21)C([N+](=O)[O-])=CC(=[N+]([O-])[O-])C=C3[N+](=O)[O-] (stereo partly drawn) [TNP-ATP, 2′,3′-O-Trinitrophenyl-adenosine-5′-triphosphate, reference compound]",IC50,2.77 µM
